Experimental data as given in BindingDB's records for doi:10.1007/bfb0000613 (German Institute of Human Nutrition, 1998).

Protein sequences, listed by entry. Tags and fused reporters are not part of them. Lines headed by an entry give the natural chain unless they say otherwise; changes in a name come on top.
UniProt P31391: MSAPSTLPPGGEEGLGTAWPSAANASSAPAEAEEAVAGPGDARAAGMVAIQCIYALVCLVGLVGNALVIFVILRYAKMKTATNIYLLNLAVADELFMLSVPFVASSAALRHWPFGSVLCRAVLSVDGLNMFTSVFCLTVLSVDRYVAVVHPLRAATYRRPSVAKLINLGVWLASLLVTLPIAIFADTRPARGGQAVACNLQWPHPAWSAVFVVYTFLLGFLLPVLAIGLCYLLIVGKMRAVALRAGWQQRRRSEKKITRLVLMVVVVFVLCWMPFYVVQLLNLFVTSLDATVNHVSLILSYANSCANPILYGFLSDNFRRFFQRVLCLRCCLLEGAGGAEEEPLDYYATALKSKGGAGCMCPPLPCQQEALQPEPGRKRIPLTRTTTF

Biological target: Somatostatin receptor type 4 (Homo sapiens, UniProt P31391)

C[C@@H](O)[C@@H]1NC(=O)[C@H](CCCCN)NC(=O)[C@@H](Cc2c[nH]c3ccccc23)NC(=O)[C@H](Cc2ccccc2)NC(=O)[C@H](Cc2ccccc2)NC(=O)[C@H](N)CSSC[C@H](C(N)=O)NC(=O)[C@H](Cc2ccccc2)NC1=O
pKi: 6.76

pKi: −log10 of the molar value.
